Results as given in patent publication US20170349641A1.

Assays:
[1] = molecular target: Aβ42 wild-type peptide (1) (Homo sapiens); experiment: Thioflavin T fluorescence, 20 µM peptide, 37° C.; self-aggregation
[2] = molecular target: Aβ42 E22e peptide (2) (Homo sapiens); experiment: as above

| t1/2 of fibril formation (self-association) [1] | t1/2 of fibril formation (self-association) [2] | Substance |
| --- | --- | --- |
| 13.4 min | – | Aβ42 wild-type peptide (1) (peptide; other documents disagree on this pair) |
| – | 65.6 min | Aβ42 E22e peptide (2) (peptide; D-glutamate at position 22 (replaces L-glutamate 22); D-glutamate at position 22 (replaces L-glutamate 22); other documents disagree on this pair) |
